# Reference: patent US10202371B2, “Oxazolidin-2-one-pyrimidine derivatives and the use thereof as phosphatidylinositol-3-kinase inhibitors” (Novartis AG, priority 2012, dated 2019)
# Chains of the proteins cited; added tags and fusions are not shown. Residues count along the entry.
# UniProt P42336, 21-1068: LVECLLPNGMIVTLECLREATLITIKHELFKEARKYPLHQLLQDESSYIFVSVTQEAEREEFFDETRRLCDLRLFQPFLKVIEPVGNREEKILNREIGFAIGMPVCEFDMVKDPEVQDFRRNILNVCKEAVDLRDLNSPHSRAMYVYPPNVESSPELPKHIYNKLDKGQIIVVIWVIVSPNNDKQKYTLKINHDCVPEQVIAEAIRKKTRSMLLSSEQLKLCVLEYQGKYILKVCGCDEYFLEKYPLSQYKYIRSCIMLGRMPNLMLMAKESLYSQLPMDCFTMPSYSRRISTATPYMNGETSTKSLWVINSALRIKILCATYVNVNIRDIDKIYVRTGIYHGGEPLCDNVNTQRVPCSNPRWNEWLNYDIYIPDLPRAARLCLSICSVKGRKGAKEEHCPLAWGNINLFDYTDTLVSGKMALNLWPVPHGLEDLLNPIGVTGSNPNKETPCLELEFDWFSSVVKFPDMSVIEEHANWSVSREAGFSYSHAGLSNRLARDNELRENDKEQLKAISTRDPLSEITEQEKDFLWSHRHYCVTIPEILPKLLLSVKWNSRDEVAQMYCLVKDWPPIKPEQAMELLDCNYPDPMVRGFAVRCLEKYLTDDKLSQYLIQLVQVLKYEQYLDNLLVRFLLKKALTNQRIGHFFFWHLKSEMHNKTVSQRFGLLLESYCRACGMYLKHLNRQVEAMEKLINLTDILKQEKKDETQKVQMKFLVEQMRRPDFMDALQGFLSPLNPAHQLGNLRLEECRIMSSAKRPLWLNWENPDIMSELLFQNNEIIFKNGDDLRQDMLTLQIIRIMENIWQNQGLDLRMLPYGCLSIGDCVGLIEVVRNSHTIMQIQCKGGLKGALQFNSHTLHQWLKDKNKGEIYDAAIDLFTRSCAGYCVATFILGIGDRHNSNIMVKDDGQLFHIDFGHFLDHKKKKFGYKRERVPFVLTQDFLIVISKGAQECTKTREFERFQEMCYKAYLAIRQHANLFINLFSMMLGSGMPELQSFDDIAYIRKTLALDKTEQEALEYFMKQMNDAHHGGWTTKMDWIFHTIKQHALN
# UniProt P42336, whole entry: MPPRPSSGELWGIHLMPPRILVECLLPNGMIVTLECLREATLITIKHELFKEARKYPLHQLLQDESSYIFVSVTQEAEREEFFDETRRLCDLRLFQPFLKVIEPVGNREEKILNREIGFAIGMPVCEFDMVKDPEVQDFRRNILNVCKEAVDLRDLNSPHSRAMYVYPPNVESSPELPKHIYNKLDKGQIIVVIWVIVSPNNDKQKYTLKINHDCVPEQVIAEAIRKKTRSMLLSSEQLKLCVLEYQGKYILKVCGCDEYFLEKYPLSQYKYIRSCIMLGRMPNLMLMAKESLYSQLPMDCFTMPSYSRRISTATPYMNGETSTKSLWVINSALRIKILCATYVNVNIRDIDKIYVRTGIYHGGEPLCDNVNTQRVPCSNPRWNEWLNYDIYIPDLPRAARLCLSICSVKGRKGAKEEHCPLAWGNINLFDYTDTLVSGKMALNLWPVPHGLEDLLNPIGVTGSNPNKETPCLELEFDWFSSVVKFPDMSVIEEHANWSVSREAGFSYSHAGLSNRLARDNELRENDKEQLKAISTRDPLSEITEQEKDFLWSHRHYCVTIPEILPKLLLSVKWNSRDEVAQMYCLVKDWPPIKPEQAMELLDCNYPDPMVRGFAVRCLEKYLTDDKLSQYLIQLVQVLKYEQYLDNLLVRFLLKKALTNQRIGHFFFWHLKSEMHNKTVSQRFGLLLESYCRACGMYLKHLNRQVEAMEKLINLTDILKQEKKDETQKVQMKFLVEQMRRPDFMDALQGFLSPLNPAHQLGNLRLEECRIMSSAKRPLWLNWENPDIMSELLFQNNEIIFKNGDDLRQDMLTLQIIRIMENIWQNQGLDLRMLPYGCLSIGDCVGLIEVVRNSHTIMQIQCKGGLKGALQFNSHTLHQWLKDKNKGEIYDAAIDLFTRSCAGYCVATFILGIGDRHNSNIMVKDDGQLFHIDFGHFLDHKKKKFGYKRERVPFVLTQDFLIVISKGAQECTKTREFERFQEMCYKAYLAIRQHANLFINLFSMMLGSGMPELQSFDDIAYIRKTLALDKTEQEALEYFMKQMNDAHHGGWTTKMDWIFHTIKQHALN
# UniProt P42338, 2-1070: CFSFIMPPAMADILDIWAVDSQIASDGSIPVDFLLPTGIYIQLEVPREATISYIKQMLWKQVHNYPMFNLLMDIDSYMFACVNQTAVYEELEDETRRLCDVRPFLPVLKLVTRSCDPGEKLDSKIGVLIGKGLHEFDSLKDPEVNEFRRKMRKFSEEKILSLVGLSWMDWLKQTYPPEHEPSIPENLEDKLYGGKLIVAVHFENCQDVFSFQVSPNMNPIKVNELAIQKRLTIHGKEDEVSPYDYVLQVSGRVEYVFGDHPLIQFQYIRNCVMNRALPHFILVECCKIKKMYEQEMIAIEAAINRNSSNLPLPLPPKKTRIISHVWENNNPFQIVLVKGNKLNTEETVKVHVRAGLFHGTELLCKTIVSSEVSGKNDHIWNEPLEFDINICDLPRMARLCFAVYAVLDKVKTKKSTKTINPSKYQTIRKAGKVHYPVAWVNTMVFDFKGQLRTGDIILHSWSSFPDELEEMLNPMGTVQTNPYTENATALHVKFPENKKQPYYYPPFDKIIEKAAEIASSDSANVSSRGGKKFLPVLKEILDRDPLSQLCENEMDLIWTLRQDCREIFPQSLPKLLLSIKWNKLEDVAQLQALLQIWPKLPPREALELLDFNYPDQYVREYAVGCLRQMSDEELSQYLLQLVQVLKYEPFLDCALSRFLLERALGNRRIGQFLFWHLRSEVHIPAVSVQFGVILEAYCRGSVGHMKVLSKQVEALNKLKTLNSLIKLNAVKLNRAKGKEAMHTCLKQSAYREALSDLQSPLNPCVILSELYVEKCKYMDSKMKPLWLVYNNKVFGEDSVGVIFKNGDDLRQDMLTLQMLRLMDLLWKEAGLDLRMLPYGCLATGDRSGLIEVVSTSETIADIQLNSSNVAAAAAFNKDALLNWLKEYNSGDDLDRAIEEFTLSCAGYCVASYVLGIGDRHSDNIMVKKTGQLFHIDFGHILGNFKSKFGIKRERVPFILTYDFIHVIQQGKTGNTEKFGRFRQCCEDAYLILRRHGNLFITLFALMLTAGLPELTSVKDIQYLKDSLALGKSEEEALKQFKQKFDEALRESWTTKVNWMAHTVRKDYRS
# Columns and labels:
# human PI3Kα = human PI3Kα (Homo sapiens (Human), UniProt P42336); assay: Biochemical assay PI3Kalpha (KinaseGlo luminescence); settings: 1 μM ATP, read-out: PI3Ka/IC50
# From the text: (§1) Cancer Ther. accepted). […] (L-alpha-phosphatidylinositol (PI), Liver, Bovine) were obtained from Avanti Polar Lipid (Cat. […] (Avanti, Cat. No. 840046X) or L-α-phosphatidylinositol (PI) was obtained from Avanti Polar Lipid (Cat. […] Luminescence is a well established readout to determine ATP concentrations and can thus be used to follow the activity of many kinases regardless of their substrate. The Kinase Glo Luminescent Kinase Assay (Promega, Madison/WI, USA) is a homogeneous HTS method of measuring kinase activity by quantifying the amount of ATP remaining in solution following a kinase reaction. 50 nL of compound dilutions were dispensed onto black 384-well low volume Non Binding Styrene (NBS) plates (Costar Cat. No. […] L-α-phosphatidylinositol (PI), provided as 10 mg/ml solution in methanol, was transferred into a glass tube and dried under nitrogen beam. […] NVP-BGT226 was used as a reference compound and included in all assay plates in the form of 16 dilution points in duplicate. […] All fits were performed with the program XLfit4 (ID Business Solutions, Guildford, UK).
# [1] = biological target: human PI3Kalpha p110 catalytic subunit (Rat-1 cells) (Homo sapiens (Human), UniProt P42336); assay: Cellular assay PI3Kalpha, p-Akt(S473) SureFire in Rat-1_PI3Kalpha cells; format: cell-based; settings: p-AKT(Ser473), 1 h treatment; for pIC50: read-out: Rat1-PI3Ka/IC50
# From the text: (§2) AlphaScreen (Amplified Luminescent Proximity Homogeneous Assay, ALPHA, Perkin Elmer) is a non-radioactive bead-based proximity assay technology to study biomolecular interactions in a homogenous microtiter plate format. The brand name SureFire denotes AlphaScreen assays that are adapted to quantify the phosphorylation of endogenous cellular proteins in cell lysates, by using matched antibody pairs, which consist of an anti-phospho-kinase and an anti-kinase antibody. The assay allows characterization of kinase signaling in cells as well as measurement of kinase inhibitor effects. The AlphaScreen technology provides several advantages over standard assay techniques such as ELISA, as it avoids time-consuming washing procedures and reduces plate handling. Furthermore, it is miniaturizable at least to a 384-well format and provides sensitivity down to the femtomolar range, dependent on the affinity of the antibodies included in the individual AlphaScreen SureFire assay kit. High sensitivity is reached by an intrinsic amplification mechanism, which involves production of singlet oxygen molecules. SureFire assay kits are commercially available for specific targets and include pairs of validated antibodies (PerkinElmer). This report describes common procedures applied for AlphaScreen SureFire assays and respective semi-automated steps for routine kinase inhibitor profiling in cell-based assays. […]
# human PI3Kβ = human PI3Kβ (Homo sapiens (Human), UniProt P42338); assay: Biochemical assay PI3Kbeta (KinaseGlo luminescence); settings: 1 μM ATP, read-out: PI3Kb/IC50
# From the text: as §1
# [2] = biological target: human PI3Kbeta p110 catalytic subunit (Rat-1 cells) (Homo sapiens (Human), UniProt P42338); assay: Cellular assay PI3Kbeta, p-Akt(S473) SureFire in Rat-1_PI3Kbeta cells; format: cell-based; settings: p-AKT(Ser473), 1 h treatment; read-out: Rat1-PI3Kb/IC50
# From the text: as §2, with “(PerkinElmer).” for “(PerkinElmer). This report describes common procedures applied for AlphaScreen SureFire assays and respective semi-automated steps for routine kinase inhibitor profiling in cell-based assays.”
structure (smiles),measurement,setting,value
"CC[C@H]1[C@H](c2ccc(OC)cc2)OC(=O)N1c1cc(-c2cnc(N)nc2C(F)(F)F)nc(N2CCOCC2)n1 (relative stereo) [Example 2, (4S*,5S*)-3-(2′-amino-2-morpholino-4′-(trifluoromethyl)-[4,5′-bipyrimidin]-6-yl)-4-ethyl-5-(4-methoxyphenyl)oxazolidin-2-one]",pIC50,human PI3Kα,7.11
same,pIC50,[1],5.97
CC[C@H]1[C@H](c2cccc(OC)c2)OC(=O)N1c1cc(-c2cnc(N)nc2C(F)(F)F)nc(N2CCOCC2)n1 [Example 6],pIC50,[1],6.03
COCCOc1ccc([C@@H]2OC(=O)N(c3cc(-c4cnc(N)nc4C(F)(F)F)nc(N4CCOCC4)n3)[C@H]2CO)cc1 [Example 12],pIC50,human PI3Kβ,8.15
same,pIC50,[2],7.19
Nc1ncc(-c2cc(N3C(=O)O[C@@H](c4ccc(OCCO)cc4)[C@@H]3CO)nc(N3CCOCC3)n2)c(C(F)(F)F)n1 [Example 13],Rat1-PI3Ka/IC50,[1],0.126 umol I-1

# pIC50: −log10 of the molar value.
